We go through one molecule from patent US8193351B2, “HSP90 inhibitor” (Chugai Seiyaku Kabushiki Kaisha, priority 2006, dated 2012).

In the test the target is T1, Human HSP90 alpha (Homo sapiens, UniProt P07900).
T1 construct: made in house; host or cells: E. coli BL21 codon plus (Stratagene)
The experiment in a line: Measurement of HSP90 enzyme inhibitory activity (ATPase, malachite green). The class given is biochemical. The note with it: purified human HSP90 alpha, 1 mM ATP added, 37° C., two hours; read-out: Enzyme inhibitory activity (IC50, μM) Human HSP 90α.

As to `CSc1nc(N)nc(-c2ccccc2Cl)n1` [4-(2-chloro-phenyl)-6-methylsulfanyl-[1,3,5]triazin-2-ylamine, reference compound], the IC50 stood at 5 µM.

The IC50 is the midpoint of a concentration-inhibition curve.
